Yeast mating assay 1: variants of the scFv Ab-14

Source: Engelhart et al. 2022 (doi:10.1038/s41597-022-01779-4), MIT Lincoln Laboratory and A-Alpha Bio; data file from the FLAb repository.

Antigen: PDVDLGDISGINAS, a 14-residue peptide of the SARS-CoV-2 spike HR2 region.

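Phage display of a naive human antibody library on the peptide gave the parent. AAYL49 was designed without a model: most single CDR substitutions and a random sample of double and triple ones. AlphaSeq pools MATa yeast showing the antibodies with MATalpha yeast showing the peptide. Pairs that bind mate more often; barcode pairs of the diploids are counted by sequencing. A regression on co-assayed BCL2-family reference pairs converts the normalised counts of each replicate to an apparent Kd. Each pool was mated in three replicate cultures.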

Each scFv is VH, the linker GGGGSGGGGSGGGGS, VL, as in the parent Ab-14, and differs from it in the CDRs of the heavy chain only.
VH: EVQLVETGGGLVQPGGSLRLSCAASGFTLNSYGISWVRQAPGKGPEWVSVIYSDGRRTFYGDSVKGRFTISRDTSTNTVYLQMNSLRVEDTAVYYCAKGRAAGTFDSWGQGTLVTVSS
VL: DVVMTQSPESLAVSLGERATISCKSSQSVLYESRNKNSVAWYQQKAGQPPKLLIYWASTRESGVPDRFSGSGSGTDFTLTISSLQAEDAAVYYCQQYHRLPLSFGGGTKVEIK

Sequences are complete VH domains.
Every variant below is changed at G26 of the VH (sequential numbering).
Kd is apparent (estimated from mating counts) and averaged on the log scale over replicates with a signal. Smaller is tighter.
A pair that was not seen in any replicate is written "no signal"; this usually means weak binding, but a binder can also be missed.
The list is sorted by this average, lowest first, undetected variants last.
Empty control strains, which show no peptide, gave a signal in 15% of pairings with library AAYL49; the median was 11 µM and 95% of these signals were weaker than 680 nM. No background was subtracted. For each scFv, signals with the empty controls are counted beside the result.
Parent in this assay: reference entry 4.4 nM, copy in this library 13 µM (one replicate of three).

The variant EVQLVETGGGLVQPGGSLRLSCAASAFTLNDYGISWVRQAPGKGPEWVSVIYSDGRRTFYGDSVKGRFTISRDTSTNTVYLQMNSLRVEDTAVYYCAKGRAAGTLDSWGQGTLVTVSS gave 61 nM (3 of 3 replicates; controls 2 of 9).
The variant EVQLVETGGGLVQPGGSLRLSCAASYFTLHSYGISWVRQAPGKGPEWVSVIYSDGRRTFYGDSVKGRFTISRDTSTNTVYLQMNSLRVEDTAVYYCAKGRVAGTFDSWGQGTLVTVSS gave 110 nM (3 of 3 replicates; controls 1 of 9).
The variant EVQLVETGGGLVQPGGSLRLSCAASNFTLNSYGISWVRQAPGKGPEWVSVIYSDGYRVFYGDSVKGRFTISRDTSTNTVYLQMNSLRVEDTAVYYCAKGRAAGTFDSWGQGTLVTVSS gave 120 nM (3 of 3 replicates; controls 1 of 9).
The variant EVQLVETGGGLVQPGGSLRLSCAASVFTLNSYGISWVRQAPGKGPEWVSVIYSDGRRTFYGASVKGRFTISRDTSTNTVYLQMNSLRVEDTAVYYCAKGRAAGTFGSWGQGTLVTVSS gave 200 nM (1 of 3 replicates; controls 0 of 9).
The variant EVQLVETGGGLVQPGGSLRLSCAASHFTLNRYGISWVRQAPGKGPEWVSVIYSDGRRTDYGDSVKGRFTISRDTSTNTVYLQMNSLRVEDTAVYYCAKGRAAGTFDSWGQGTLVTVSS gave 480 nM (1 of 3 replicates; controls 1 of 9).
The variant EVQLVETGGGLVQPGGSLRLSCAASMITLNSYVISWVRQAPGKGPEWVSVIYSDGRRTFYGDSVKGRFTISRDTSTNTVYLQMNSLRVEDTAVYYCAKGRAAGTFDSWGQGTLVTVSS gave 3.7 µM (1 of 3 replicates; controls 1 of 9).
The variant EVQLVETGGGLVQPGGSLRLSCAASWFTLNKYGISWVRQAPGKGPEWVSVIYSDGRHTFYGDSVKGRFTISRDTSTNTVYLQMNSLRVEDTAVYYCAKGRAAGTFDSWGQGTLVTVSS gave 3.9 µM (1 of 3 replicates; controls 0 of 9).
The variant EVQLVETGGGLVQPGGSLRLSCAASMFTLNSYWISWVRQAPGKGPEWVSVIYSDGRKTFYGDSVKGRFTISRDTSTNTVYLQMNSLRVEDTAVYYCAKGRAAGTFDSWGQGTLVTVSS gave 9.3 µM (1 of 3 replicates; controls 8 of 9).
The variant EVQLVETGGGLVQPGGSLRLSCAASDFTLNSYGISWVRQAPGKGPEWVSVIYSDGRATMYGDSVKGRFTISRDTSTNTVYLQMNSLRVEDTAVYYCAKGRAAGTFDSWGQGTLVTVSS gave 50 µM (2 of 3 replicates; controls 5 of 9).
The variant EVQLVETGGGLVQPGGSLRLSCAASMFTLNSYGISWVRQAPGKGPEWVSVIYSTGRRTFYGDSVKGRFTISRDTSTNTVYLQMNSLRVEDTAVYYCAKGRAAGTFDEWGQGTLVTVSS gave 62 µM (2 of 3 replicates; controls 1 of 9).
The variant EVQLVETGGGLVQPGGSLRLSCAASTFTLNSYGISWVRQAPGKGPEWVSVIYSDGRRTFYGDSLKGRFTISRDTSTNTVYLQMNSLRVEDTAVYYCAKGRAQGTFDSWGQGTLVTVSS gave 570 µM (2 of 3 replicates; controls 3 of 9).
The variant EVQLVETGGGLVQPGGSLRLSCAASPFTLNSYGLSWVRQAPGKGPEWVSVIKSDGRRTFYGDSVKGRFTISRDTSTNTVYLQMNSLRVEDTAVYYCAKGRAAGTFDSWGQGTLVTVSS gave no signal (0 of 3 replicates; controls 0 of 9).
The variant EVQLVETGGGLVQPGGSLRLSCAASHFTLNSYGISWVRQAPGKGPEWVSVIYSDGRRTFYGDSVPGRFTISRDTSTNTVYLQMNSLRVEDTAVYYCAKGRAAGTGDSWGQGTLVTVSS gave no signal (0 of 3 replicates; controls 1 of 9).
The variant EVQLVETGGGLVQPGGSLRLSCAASCFTLNSYGISWVRQAPGKGPEWVSVIYSDKYRTFYGDSVKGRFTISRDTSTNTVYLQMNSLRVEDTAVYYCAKGRAAGTFDSWGQGTLVTVSS gave no signal (0 of 3 replicates; controls 0 of 9).
The variant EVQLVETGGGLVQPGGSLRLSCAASQFTLNSKGISWVRQAPGKGPEWVSVIYSDGRRTFYGDSVKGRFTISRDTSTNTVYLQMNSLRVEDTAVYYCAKGRAAGTFDDWGQGTLVTVSS gave no signal (0 of 3 replicates; controls 0 of 9).
The variant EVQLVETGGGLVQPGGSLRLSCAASNFTLNSYGISWVRQAPGKGPEWVSVIYSDGRMKFYGDSVKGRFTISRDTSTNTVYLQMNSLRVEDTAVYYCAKGRAAGTFDSWGQGTLVTVSS gave no signal (0 of 3 replicates; controls 0 of 9).
The variant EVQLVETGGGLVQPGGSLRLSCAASRFTLNSYGISWVRQAPGKGPEWVSVIYSDARRTFYGDSVKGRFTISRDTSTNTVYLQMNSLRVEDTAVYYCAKGRAAGTFDSWGQGTLVTVSS gave no signal (0 of 3 replicates; controls 0 of 9).
The variant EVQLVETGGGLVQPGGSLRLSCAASWFTLNSYGICWVRQAPGKGPEWVSVIYSDGRRTFYGDSVKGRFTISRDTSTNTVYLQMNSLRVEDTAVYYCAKGRAAGTFDSWGQGTLVTVSS gave no signal (0 of 3 replicates; controls 2 of 9).
The variant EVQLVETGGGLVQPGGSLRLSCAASHFTLNSYCISWVRQAPGKGPEWVSVIYSDGRRTFYGDSVKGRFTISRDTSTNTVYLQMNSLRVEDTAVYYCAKVRAAGTFDSWGQGTLVTVSS gave no signal (0 of 3 replicates; controls 1 of 9).
The variant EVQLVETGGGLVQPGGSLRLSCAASWDTLNSYGISWVRQAPGKGPEWVSVIYSDGRRTFYGDSVMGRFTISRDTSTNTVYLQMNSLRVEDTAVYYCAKGRAAGTFDSWGQGTLVTVSS gave no signal (0 of 3 replicates; controls 0 of 9).

The first 3 entries again:

| VH | Kd (apparent) | seen in | control signals |
|---|---|---|---|
| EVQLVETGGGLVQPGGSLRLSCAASAFTLNDYGISWVRQAPGKGPEWVSVIYSDGRRTFYGDSVKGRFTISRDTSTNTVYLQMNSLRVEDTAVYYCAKGRAAGTLDSWGQGTLVTVSS | 61 nM | 3 of 3 | 2 of 9 |
| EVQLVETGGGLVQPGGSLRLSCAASYFTLHSYGISWVRQAPGKGPEWVSVIYSDGRRTFYGDSVKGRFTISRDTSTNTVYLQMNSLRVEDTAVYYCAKGRVAGTFDSWGQGTLVTVSS | 110 nM | 3 of 3 | 1 of 9 |
| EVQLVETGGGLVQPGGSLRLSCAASNFTLNSYGISWVRQAPGKGPEWVSVIYSDGYRVFYGDSVKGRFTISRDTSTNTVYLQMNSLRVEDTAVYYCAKGRAAGTFDSWGQGTLVTVSS | 120 nM | 3 of 3 | 1 of 9 |